# Test results from patent US5707855A (priority 1996, dated 1998).
# Experiments:
# [1] = system: E. cloacae; assay type: cell-based; settings: strain 218S, Parent of 218R1
# Description: (§1) The minimum inhibitory concentrations of (MIC) of CEME, CEMA and melittin were determined for a number of different bacteria (Table 2). Briefly, cells were grown overnight at 37° C. in LB-S (Luria broth without any salt supplement) and diluted one in 10,000 in the same medium to give concentrations of about 10^4 to 10^5 CFU/ml. The broth dilutions were set up in a 96 well microtiter plate by putting 200 μl of LB-S containing the initial concentration of antibiotic or compound in column 1 and 100 μl of the same medium in columns 2-12. The compounds were diluted by taking 100 μl of broth from column 1 and mixing it with column 2, resulting in a one in two dilution. This was continued to column 10. Finally, 10 μl of bacteria were pipetted into columns 1-11, and the plates incubated overnight at 37° C. The next day the plates were scored for growth in the wells, and the MIC determined.
# [2] = system: E. coli; assay type: cell-based; settings: strain UB1005, Parent of DC2
# Description: as §1
smiles,measurement,setting,value
"CC[C@H](C)[C@H](NC(=O)CN)C(=O)NCC(=O)N[C@@H](C)C(=O)N[C@H](C(=O)N[C@@H](CC(C)C)C(=O)N[C@@H](CCCCN)C(=O)N[C@H](C(=O)N[C@@H](CC(C)C)C(=O)N[C@H](C(=O)N[C@H](C(=O)NCC(=O)N[C@@H](CC(C)C)C(=O)N1CCC[C@H]1C(=O)N[C@@H](C)C(=O)N[C@@H](CC(C)C)C(=O)N[C@H](C(=O)N[C@@H](CO)C(=O)N[C@@H](Cc1c[nH]c2ccccc12)C(=O)N[C@H](C(=O)N[C@@H](CCCCN)C(=O)N[C@@H](CCCNC(=N)N)C(=O)N[C@@H](CCCCN)C(=O)N[C@@H](CCCNC(=N)N)C(=O)N[C@@H](CCC(N)=O)C(=O)N[C@@H](CCC(N)=O)C(N)=O)[C@@H](C)CC)[C@@H](C)CC)[C@@H](C)O)[C@@H](C)O)C(C)C)C(C)C [Melittin, melittin]",MIC,[1],8 µg/mL
same,MIC,[2],8 µg/mL
